From patent US4066772A, “1,3-Dihydro-1-[3-(1-piperidinyl)propyl]-2H-benzimidazol-2-ones and related compounds” (Janssen Pharmaceutica N.V., priority 1976, dated 1978)
Only a part of the results on these compounds is given; other tests are left out.

Test system: apomorphine-induced vomiting in dogs
Test: Apomorphine-induced vomiting test in dogs (antiemetic activity, subcutaneous)
Type: in vivo
Details: s.c., beagle dogs, apomorphine 0.31 mg/kg s.c. 1 hour after compound

Compound	ED50 (dose which protects 50% of the animals from emesis), Table II	ED50 (dose which protects 50% of the animals from emesis), Table IV
Cl.O.O=c1[nH]c2cc(F)ccc2n1CCCN1CCC(n2c(=O)[nH]c3cc(Cl)ccc32)CC1	0.004 mg/kg	
Cc1ccc2c(c1)[nH]c(=O)n2CCCN1CCC(n2c(=O)[nH]c3ccccc32)CC1.Cl.O	0.20 mg/kg	
O=c1[nH]c2cc(Cl)ccc2n1CCCN1CCC(n2c(=O)[nH]c3ccccc32)CC1	0.10 mg/kg	
Cc1ccc2c(c1)[nH]c(=O)n2CCCN1CCC(n2c(=O)[nH]c3cc(Cl)ccc32)CC1.Cl.O	0.12 mg/kg	
CC(C)O.Cc1cc2[nH]c(=O)n(CCCN3CCC(n4c(=O)[nH]c5ccccc54)CC3)c2cc1C	0.45 mg/kg	
C=CCn1c(=O)n(CCCN2CCC(n3c(=O)[nH]c4cc(Cl)ccc43)CC2)c2ccccc21	0.12 mg/kg	
O=c1[nH]c2cc(Cl)ccc2n1CCCN1CCC(n2c(=O)[nH]c3cc(Cl)ccc32)CC1	0.12 mg/kg	
Cn1c(=O)n(CCCN2CCC(n3c(=O)[nH]c4cc(Cl)ccc43)CC2)c2ccccc21	0.16 mg/kg	
O=c1oc2ccccc2n1CCCN1CCC(n2c(=O)[nH]c3cc(Cl)ccc32)CC1		0.03 mg/kg
O=c1[nH]c2ccccc2n1CCCN1CCC(n2c(=O)[nH]c3ccccc32)CC1	0.02 mg/kg	
O=c1sc2ccccc2n1CCCN1CCC(n2c(=O)[nH]c3cc(Cl)ccc32)CC1		0.001 mg/kg
CC(CN1CCC(n2c(=O)[nH]c3cc(Cl)ccc32)CC1)Cn1c(=O)[nH]c2ccccc21 (centres unmarked)	0.06 mg/kg	
O=c1[nH]c2cc(Cl)ccc2n1C1CCN(CCCn2nnc3ccccc32)CC1		0.06 mg/kg
C=C(C)n1c(=O)n(CCCN2CCC(n3c(=O)[nH]c4cc(Cl)ccc43)CC2)c2ccccc21	0.20 mg/kg	
